# Apparent affinities of Ab-95 variants for a coronavirus HR2 peptide

Antigen: PDVDLGDISGINAS, a 14-residue peptide of the SARS-CoV-2 spike HR2 region.

The variants keep the heavy chain, the linker and the frameworks of Ab-95 (scFv order VH, three GGGGS repeats, VL).
VH: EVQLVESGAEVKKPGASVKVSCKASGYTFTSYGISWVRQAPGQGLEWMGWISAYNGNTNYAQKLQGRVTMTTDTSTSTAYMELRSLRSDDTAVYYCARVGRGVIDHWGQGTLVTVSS
VL: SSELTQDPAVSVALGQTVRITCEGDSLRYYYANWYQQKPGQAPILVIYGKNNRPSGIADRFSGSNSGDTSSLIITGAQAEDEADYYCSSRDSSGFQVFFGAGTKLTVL

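The parent was found by panning a naive human phage display library on the peptide. Variants in AAYL52 differ from the parent at up to three CDR positions; double and triple changes were sampled at random. The scFvs were displayed on barcoded MATa yeast, the peptide on MATalpha yeast. After mating in shaken culture at 30 °C for 16 h, diploids were selected and their barcode pairs sequenced. Scores were corrected for input abundance and mapped to Kd with protein pairs of known affinity run in the same pool. There are three technical replicates.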

Each variant is given by its three light chain CDRs, as the data file delimits them; those of the parent are EGDSLRYYYAN, GKNNRPS, SSRDSSGFQVF.
The read-out is the apparent dissociation constant on a log10 scale (nM): the lower, the stronger.
Averages over replicates are reported, and they cover detected replicates only.
"n.d." marks a missing value. The strain was present, yet no cells mated with the target were sequenced in that replicate, which points to weak or no binding.

CDR-L1	CDR-L2	CDR-L3	log10 Kd, replicates	mean log10 Kd (nM)	signal with controls
EGDSLRYLYAN	GKNDRPS	DSRDSSGFQVF	3.20 2.73 2.91	2.95	2 of 9 (4.47)
YGDSLRYMYAN	GKNNRPS	SSRDSSGFQVI	2.25 2.51 2.38	2.38	2 of 9 (3.63)
EGDMLRYVYAN	GKNNRPS	SSRDSSGFQVC	2.63 2.73 3.13	2.83	1 of 9 (3.17)
EGDSLQYYYAN	GLNNRPS	SSRDSSPFQVF	3.80 n.d. n.d.	3.80	0 of 9
EGDSLRYYYAW	GKNNLPS	SSRDSSGQQVF	n.d. 3.44 4.16	3.80	3 of 9 (4.41)
SGDSLRYIYAN	GENNRPS	SSRDSSGFQVF	2.43 2.08 2.15	2.22	4 of 9 (4.45)
EGDSLRYYYAN	GKPHMPS	SSRDSSGFQVF	4.14 3.01 n.d.	3.58	1 of 9 (3.98)
EGDSLRYYYAN	GKNNRPS	SSRDNSGFTVQ	3.50 3.63 2.17	3.10	0 of 9
EGDSLRYYPAN	GKKNRPS	SSRDSSGFQVF	2.46 2.65 2.14	2.42	2 of 9 (4.14)
EGDSLCYQYAN	GKNNRPS	SSRDSTGFQVF	1.40 1.43 1.06	1.29	0 of 9
EGDSLRYTYAN	GKNNIPS	SSRDSSGFQVF	1.51 1.37 0.79	1.22	0 of 9
EGDSLRYYYAN	DKINRPS	SSRESSGFQVF	4.39 4.09 3.07	3.85	1 of 9 (2.98)
EGDSLRYYYAN	CKNNLPS	SSRLSSGFQVF	n.d. n.d. 4.28	4.28	1 of 9 (3.89)
EGDSLRWYYAN	LKNNRPS	SSRDSYGFQVF	3.93 n.d. n.d.	3.93	4 of 9 (3.62)
EGDSLRYYYAN	GKNNRPS	SQRDSSGFTVK	2.47 2.98 2.83	2.76	2 of 9 (2.95)
EGNSLRYYYAN	GKNNRAS	KSRDSSGFQVF	3.28 2.85 3.21	3.11	1 of 9 (4.03)
EGDSLRYYYAN	KKNNRLS	SSIDSSGFQVF	n.d. n.d. 3.06	3.06	4 of 9 (3.51)
EGLSLRGSYAN	GKNNRPS	SSRDSSGFQVF	1.36 1.30 0.47	1.04	3 of 9 (3.78)
EGDSHRYYTAN	GKNNRPS	SSRDSSGFQVF	2.57 2.45 1.83	2.28	5 of 9 (3.83)
EGDSLRFYYAN	GGNKRPS	SSRDSSGFQVF	2.40 2.02 1.86	2.09	3 of 9 (3.49)
EGDSLRYYYCN	GKNNCPS	SHRDSSGFQVF	n.d. n.d. n.d.	n.d.	3 of 9 (3.84)
EGDMLRYYYAI	GKNNRPS	SERDSSGFQVF	n.d. 3.17 3.39	3.28	1 of 9 (4.26)
EGDSARYYNAN	GKNPRPS	SSRDSSGFQVF	n.d. n.d. n.d.	n.d.	1 of 9 (3.30)
EGDSSRYYYAN	GKKNRPS	ESRDSSGFQVF	4.33 3.61 n.d.	3.97	3 of 9 (3.61)
EGDSLRYYYAN	GKNNRQS	SSRYSSGFQVA	3.26 3.71 n.d.	3.49	4 of 9 (4.04)
EGDSLRYYYAN	GKNNIPS	SSTDSSGFQVF	3.93 n.d. n.d.	3.93	2 of 9 (3.66)
KGDSLRYYDAN	GKNNRPC	SSRDSSGFQVF	0.86 0.87 0.43	0.72	1 of 9 (3.84)
EGDSLGYYYAN	GKNNGPS	SSRDRSGFQVF	3.52 4.30 2.98	3.60	6 of 9 (3.69)
EQDSLRYYYAN	GKNNRPS	SSNDSPGFQVF	n.d. 3.45 n.d.	3.45	3 of 9 (3.60)
EGDSLRYWYAN	GKNNRPS	SSRESPGFQVF	2.79 2.67 3.76	3.07	0 of 9
EGDSLRYYYAN	GKKNRPS	ASTDSSGFQVF	n.d. 4.37 n.d.	4.37	2 of 9 (3.81)
EGDSLRYYYAN	GKNNRPS	SSRTASGFLVF	2.79 2.72 3.23	2.91	2 of 9 (4.42)
EGDSLRYSYAN	GQNNRPS	SSRDKSGFQVF	0.89 0.78 0.24	0.64	5 of 9 (4.40)
EGDSLRYYYMN	YKNNRLS	SSRDSSGFQVF	n.d. n.d. n.d.	n.d.	2 of 9 (3.21)

A selection of 6 entries from above:

CDR-L1	CDR-L2	CDR-L3	log10 Kd, replicates	mean log10 Kd (nM)	signal with controls
EGDMLRYVYAN	GKNNRPS	SSRDSSGFQVC	2.63 2.73 3.13	2.83	1 of 9 (3.17)
EGDSLRYYYAN	GKNNRPS	SQRDSSGFTVK	2.47 2.98 2.83	2.76	2 of 9 (2.95)
EGDSLRYYYAN	GKKNRPS	ASTDSSGFQVF	n.d. 4.37 n.d.	4.37	2 of 9 (3.81)
EGDSLRYTYAN	GKNNIPS	SSRDSSGFQVF	1.51 1.37 0.79	1.22	0 of 9
KGDSLRYYDAN	GKNNRPC	SSRDSSGFQVF	0.86 0.87 0.43	0.72	1 of 9 (3.84)
EQDSLRYYYAN	GKNNRPS	SSNDSPGFQVF	n.d. 3.45 n.d.	3.45	3 of 9 (3.60)

In this assay the parent's reference entry averaged 2.31; its copy inside this library read 2.25.
Empty control strains, which show no peptide, gave a signal in 28% of pairings with library AAYL52; the median was 3.91 and 95% of these signals were weaker than 2.90. No background was subtracted. For each scFv, signals with the empty controls are counted beside the result, with their mean in brackets.

The measurements come from Engelhart et al. 2022 (doi:10.1038/s41597-022-01779-4) through the FLAb antibody collection.